Test results reported in patent publication US9604850B2, “Ammonia borane purification method” (WeylChem Sustainable Materials, LLC, priority 2013, dated 2017).

Details: about 5 weight % NaOH in solution, 25° C.

ammonia borane
solubility in sodium hydroxide solution: similar
